Source: patent US20220119490A1 (Genentech, published 2022)

Legend:
[1] = molecular target: T1, FCGR2A_DNA809501 (human, UniProt P12318); assay: extracellular interaction screen, normalized intensity; labelled dot against the clone named on the axis; which is query and which prey is not given; colour of the predicted class lost
T1 construct: extracellular domain
T1 sequence (extracellular domain construct of the screen, looked up): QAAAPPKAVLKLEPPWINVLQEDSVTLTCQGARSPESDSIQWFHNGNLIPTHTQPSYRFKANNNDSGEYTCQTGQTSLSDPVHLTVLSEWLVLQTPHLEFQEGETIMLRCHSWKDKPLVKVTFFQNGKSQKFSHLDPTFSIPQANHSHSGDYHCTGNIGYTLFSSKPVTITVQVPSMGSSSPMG

[2] = molecular target: T2, CD48_DNA809504 (human, UniProt P09326); assay: as above
T2 construct: extracellular domain
T2 sequence (extracellular domain construct of the screen, looked up): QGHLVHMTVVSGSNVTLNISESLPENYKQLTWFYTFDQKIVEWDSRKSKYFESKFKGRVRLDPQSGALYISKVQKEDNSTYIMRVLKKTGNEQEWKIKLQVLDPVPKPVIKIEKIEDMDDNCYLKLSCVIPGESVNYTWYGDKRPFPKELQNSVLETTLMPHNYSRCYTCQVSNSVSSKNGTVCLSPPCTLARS

B1: PD-1 extracellular domain (receptor, human, UniProt Q15116 25-170, looked up)
chain: LDSPDRPWNPPTFSPALLVVTEGDNATFTCSFSNTSESFVLNWYRMSPSNQTDKLAAFPEDRSQPGQDCRFRVTQLPNGRDFHMSVVRARRNDSGTYLCGAISLAPKAQIKESLRAELRVTERRAEVPTAHPSPSPRPAGQFQTLV
notes: extracellular domain; ECD construct; also called PDCD1; programmed cell death 1
B1: binds [1]; binds [2].
